Experimental findings from article PMC2861366 (Biochemistry, 2010) are described below.

Amino acid sequences for entries named in this document (tags omitted). A change or cut given only in a name is not applied to a line headed by its entry.
UniProt P17888: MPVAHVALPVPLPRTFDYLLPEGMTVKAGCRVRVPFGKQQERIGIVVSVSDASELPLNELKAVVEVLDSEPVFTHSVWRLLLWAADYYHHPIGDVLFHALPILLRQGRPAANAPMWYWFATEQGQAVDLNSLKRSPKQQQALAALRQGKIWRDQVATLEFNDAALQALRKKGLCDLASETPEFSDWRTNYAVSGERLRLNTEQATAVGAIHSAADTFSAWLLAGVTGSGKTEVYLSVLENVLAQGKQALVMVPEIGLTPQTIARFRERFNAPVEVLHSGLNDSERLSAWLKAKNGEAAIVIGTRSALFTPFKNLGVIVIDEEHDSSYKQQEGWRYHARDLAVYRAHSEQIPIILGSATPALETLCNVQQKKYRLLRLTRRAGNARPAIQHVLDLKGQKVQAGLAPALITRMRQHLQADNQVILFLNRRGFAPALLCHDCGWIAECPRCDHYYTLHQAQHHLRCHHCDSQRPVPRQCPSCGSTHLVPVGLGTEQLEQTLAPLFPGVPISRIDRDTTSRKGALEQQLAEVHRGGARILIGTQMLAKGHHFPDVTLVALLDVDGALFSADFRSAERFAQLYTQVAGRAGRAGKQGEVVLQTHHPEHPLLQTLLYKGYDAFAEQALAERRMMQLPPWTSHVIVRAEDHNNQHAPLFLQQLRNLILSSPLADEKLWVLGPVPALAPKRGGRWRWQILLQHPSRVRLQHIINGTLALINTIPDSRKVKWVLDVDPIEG

Where “and” joins values, the source holds several entries; their conditions need not be identical. Equal values may be shown once. Read-outs that look alike come from different tables or passages of the source.

As usually defined, the stoichiometry N is the number of molecules, sites or subunits per partner or assembly.

First the molecules themselves.
B1: χ subunit of DNA polymerase III holoenzyme (natural protein, E. coli, UniProt P28905 1-147, looked up)
chain: MKNATFYLLDNDTTVDGLSAVEQLVCEIAAERWRSGKRVLIACEDEKQAYRLDEALWARPAESFVPHNLAGEGPRGGAPVEIAWPQKRSSSRRDILISLRTSFADFATAFTEVVDFVPYEDSLKQLARERYKAYRVAGFNLNTATWK
B2: E. coli single stranded DNA binding (SSB) protein (natural protein, UniProt P0AGE0 1-178, looked up)
chain: MASRGVNKVILVGNLGQDPEVRYMPNGGAVANITLATSESWRDKATGEMKEQTEWHRVVLFGKLAEVASEYLRKGSQVYIEGQLRTRKWTDQSGQDRYTTEVVVNVGGTMQMLGGRQGGGAPAGGNIGGGQPQGGWGQPQQPQGGNQFSGGAQSRPQQSAPAAPSNEPPMDFDDDIPF

Holding throughout (assay): ITC
Assay [1] has as its target B2.
Assay [2] addresses B2. The source holds these as a separate data set.
For assay [3], the target named is B2. This is another data set of the same source.
The target of assay [4] is B2. The source holds these as a separate data set.
Assay [5] addresses B2. This is another data set of the same source.
For assay [6], the target named is T1, E. coli PriA helicase (E. coli, UniProt P17888).
For assay [7], the target named is T1, E. coli PriA helicase. The source holds these as a separate data set.
In assay [8] the target is T1, E. coli PriA helicase. The source holds these as a separate data set.
The target of assay [9] is B1.
The target of assay [10] is B1. The source holds these as a separate data set.
Assay [11] addresses T1, E. coli PriA helicase. The source holds these as a separate data set.
In assay [12] the target is T1, E. coli PriA helicase. The source holds these as a separate data set.
Assay [13] addresses T1, E. coli PriA helicase. This is another data set of the same source.
Assay [14] addresses T1, E. coli PriA helicase. This is another data set of the same source.

B1: the Ka in assay [1] came to 300000 M⁻¹; in assay [2] it was 5.5e+06 M⁻¹; in assay [3], 7.6e+06 M⁻¹; in assay [4], 540000 M⁻¹; in assay [5], 3.8e+06 M⁻¹. In addition, the dH in [1] was -6.1 ± 1.1 kcal/mol; in [4] it was -9.5 ± 1 kcal/mol. Further, the “stoichiometry N” value in assay [1] turned out to be 3.9 ± 0.4; in assay [2], 3.5 ± 0.1; in [4], 3.9 ± 0.3.

Consider B2, for which the Ka in the assay with E. coli PriA helicase [6] was 1.9e+06 M⁻¹; in the assay with E. coli PriA helicase [7], 390000 M⁻¹; with E. coli PriA helicase [8], 450000 M⁻¹; in the assay with E. coli PriA helicase [11], 2e+06 to 5e+06 M⁻¹; in the assay with E. coli PriA helicase [12], 3.2e+06 M⁻¹ and 1.1e+06 M⁻¹; with E. coli PriA helicase [13], 3.7e+06 M⁻¹. In the assay with E. coli PriA helicase [14], the Ka was determined as 4e+06 M⁻¹. Besides, the dH in the assay with E. coli PriA helicase [6] is -8.6 ± 0.3 kcal/mol; with E. coli PriA helicase [7] it was -8.1 ± 1 kcal/mol; with E. coli PriA helicase [8], -7.5 ± 0.5 kcal/mol; in assay [9], -8.7 ± 0.3 kcal/mol; in [10], -8.9 ± 0.2 kcal/mol; in the assay with E. coli PriA helicase [12], -16.6 kcal/mol and -16.9 kcal/mol. Moreover, the dH with E. coli PriA helicase [13] was -18.1 ± 2.6 kcal/mol; in the assay with E. coli PriA helicase [14], -18.3 ± 2 kcal/mol. Besides, the “stoichiometry N” value with E. coli PriA helicase [6] was 3.8 ± 0.4; in assay [9], 4.5 ± 0.2; in assay [10], 4.3 ± 0.2; with E. coli PriA helicase [12], 2.2 and 2; with E. coli PriA helicase [13] it was 3.2 and ~4 and 4; with E. coli PriA helicase [14] it was 3 ± 0.3.
